Compounds with a hit are over-represented: about 2.8% of the library has one in this group of screens.
esBAF inh: blocks esBAF chromatin remodeling in mouse ES cells; Bmi1-luciferase knock-in reporter, 24 h; 100% = twice the neutral-well signal; reporter increase, % at 12.5 µM; 2% of 350,000 active; AID 602393; in the data active means activation above about 40%; inconclusive means no clear call, values can overlap the other calls;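 further: a rise in the Bmi1 reporter signal indicates esBAF inhibition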
C2C12 statin: protects C2C12 myotubes from simvastatin toxicity; 0.78% of 330,000 active; ATP luminescence, 48 h; scaled: DMSO 0, geranylgeraniol control 100; rescue of ATP level, % at 7.49 µM;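 active means mean ATP rescue above about 67%, or every replicate alone reaching that limit, limit read from the data, passing the limit was not always enough; inconclusive means no clear call, values can overlap the other calls; inactive means mean under the limit and some replicate under it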;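 further: myotubes were challenged with 10 µM simvastatin during compound exposure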
PglD inh: inhibitors of Campylobacter jejuni PglD acetyltransferase | purified PglD enzyme, DTNB colorimetric CoA detection | inhibition, % at 12.5 µM | 0.098% of 360,000 active; in the data active means inhibition above about 16%, passing the limit was not always enough; inconclusive means no clear call, values can overlap the other calls
E-sel inducer: E-selectin induction on HUVECs. P16581. 0.37% of 260,000 active. activation, % at 7.58 µM. HUVEC E-selectin immunofluorescence imaging; normalized: neutral wells 0, TNF-alpha wells 100;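 active means mean E-selectin-positive cell signal at least 10% of the positive control, reached in at least 60% of replicates, without over 20% cell loss; inconclusive means no rule given, readout overlaps actives, possibly toxicity-flagged; inactive means the rest, including those meeting only one limit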
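assay system = HUVEC, human umbilical vein endothelial cells | input = 3,000 HUVEC seeded per well | medium = EGM-2 growth medium on 0.1% gelatin-coated wells | dosing = one compound dose added by pin transfer | signal = immunofluorescence imaging | read-out basis = % PE-positive cells | control set = TNF-alpha, DMSO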
UUG fidelity: yeast start codon fidelity modulation | S. cerevisiae UUG-firefly luciferase reporter, luminescence/redox ratio | activity score, % at 18.7 µM | hit rate 0.13% among 350,000 | AID 602363;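 active means replicate mean at a twofold rise or more, about +100% in these data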;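 further: firefly luciferase made from a UUG start codon reports start codon fidelity; reporter light over untreated wells divided by growth signal over untreated wells; some hits fall short of that in this replicate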
PGC1a acetyl inh: PGC1a acetylation modulation, inhibitor mode; U2OS PGC1a acetylation, AlphaScreen anti-acetyl-lysine; with virally co-expressed GCN5 acetyltransferase; 0.17% of 350,000 active; AID 651687; inhibition, % at 15.6 µM;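 active means every replicate shows inhibition of at least 40%; inconclusive means mean inhibition at least 40% but some replicate below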
Numbers stand for hits; n = inactive; u = inconclusive; x = no result given.

SMILES | esBAF inh | C2C12 statin | PglD inh | E-sel inducer | UUG fidelity | PGC1a acetyl inh
COCc1cn(CC[C@H]2CC[C@@H](NC(=O)Cc3cccnc3)[C@@H](CO)O2)nn1 | n | n | n | n | n | n
CO[C@@H]1CN(C)C(=O)c2cc(NC(=O)c3cccc(F)c3)ccc2OC[C@H](C)N(CC2CC2)C[C@H]1C | n | n | n | n | n | n
C[C@@H]1CN([C@@H](C)CO)C(=O)c2cc(NS(=O)(=O)c3ccc(F)cc3)ccc2O[C@@H](C)CCCCO[C@@H]1CN(C)Cc1ccccc1 | n | x | n | x | n | n
COCC(=O)Nc1ccc2c(c1)OC[C@H](C)N(Cc1ccccc1F)C[C@@H](C)[C@H](OC)CN(C)C2=O | n | n | n | n | n | x
CCS(=O)(=O)N1CCN(c2ccc([N+](=O)[O-])c(NCc3ccccc3)c2)CC1 | n | n | n | x | 239.8 | n
CS(=O)(=O)N1CCN(c2ccc([N+](=O)[O-])c(NCc3ccccc3)c2)CC1 | n | n | n | x | n | n
[O-][n+]1c2ccccc2c2n1CCN1CCOC21c1ccc(Cl)cc1 (configuration not stated) | 60.1 | n | n | n | n | x
N#Cc1ccc(C23OCCN2CCn2nc4ccccc4c23)cc1 (configuration not stated) | n | n | n | n | n | n
CNC[C@H]1Oc2ncc(Br)cc2C(=O)N([C@@H](C)CO)C[C@@H]1C | n | n | x | n | x | n
COc1ccc(C(=O)n2nc(C)cc2Nc2ccccc2)cc1 | 55.4 | n | n | x | n | n
Cc1cc(Nc2ccccc2)nn1C(=O)c1ccccc1 | n | n | n | x | n | n
COc1ccc(C(=O)c2sc(Nc3ccccc3)nc2N)cc1 | n | 78.1 | n | n | n | x
Cc1cc(NC(=O)CCC(=O)N(c2ccc(F)cc2)C(C(=O)NC2CCCC2)c2ccccc2)no1 (configuration not stated) | n | n | n | n | n | n
Cc1cc(NC(=O)CCC(=O)N(c2ccccc2)C(C(=O)NC2CCCC2)c2ccc(F)cc2)no1 (configuration not stated) | n | n | n | 36.3 | n | n
O=C(C1CCCCC1)N1C[C@H]2[C@@H](c3ccccc31)[C@H](CO)N2CC1CCOCC1 | n | n | n | n | n | n
CSc1ncccc1C(=O)Nc1nc2ccc(Oc3ccccc3)cc2s1 | 45.1 | n | x | x | x | n
COc1ccc2nc(NC(=O)c3ccccc3C(=O)O)sc2c1 | n | n | n | n | n | x
CS(=O)(=O)c1ccc2nc(NC(=O)c3ccccc3Br)sc2c1 | 57.9 | n | n | x | n | n
CS(=O)(=O)c1ccc2nc(NC(=O)c3cc4ccccc4o3)sc2c1 | 67.5 | n | n | x | n | n
CCc1nnc(NC(=O)c2ccc(Cl)nc2)s1 | u | n | n | n | n | x
CS(=O)(=O)c1ccc2nc(NC(=O)c3ccccc3Cl)sc2c1 | n | n | n | n | n | x
O=C(Nc1nnc(C2CC2)s1)c1ccc(Cl)nc1 | 53.0 | n | n | n | n | n
CC(=O)NC[C@H]1[C@H](c2ccc(-c3ccccc3)cc2)[C@H](CO)N1C(=O)C1CC1 | n | n | n | n | n | n
COc1ccccc1C(=O)Nc1nc2ccc(S(C)(=O)=O)cc2s1 | 48.8 | n | n | x | n | n
COc1ccccc1C(=O)Nc1nc2ccccc2s1 | n | n | n | n | n | n
SMILES | esBAF inh | C2C12 statin | PglD inh | E-sel inducer | UUG fidelity | PGC1a acetyl inh
O=C(Nc1nnc(C2CC2)s1)c1cc2ccccc2o1 | 46.1 | n | n | n | n | n
C[C@@H]1CN([C@@H](C)CO)C(=O)c2cc(NC(=O)Nc3ccccc3)ccc2O[C@@H](C)CCCCO[C@H]1CN(C)C | n | n | n | n | n | n
NS(=O)(=O)c1cccc(NC(=O)c2cc(=O)c3ccccc3o2)c1 | n | n | n | x | n | x
O=C(Nc1ccccc1Br)c1cc(=O)c2ccccc2o1 | 49.2 | n | n | x | n | n
Cc1ccc(Nc2nnc(SCC(=O)NCC3CCCO3)s2)cc1C (configuration not stated) | 46.9 | n | n | n | n | n
Cc1ccc(Nc2nnc(SCC(=O)NCC3CCCO3)s2)cc1 (configuration not stated) | n | n | n | x | n | x
COc1ccc(C2NC(=S)NC3=C2CCc2cc(OC)ccc23)cc1 (configuration not stated) | n | 89.9 | n | x | n | n

Compound activity: PubChem BioAssay, Broad Institute
